Assay results from ChEMBL document CHEMBL1135855, “4-amidinobenzylamine-based inhibitors of urokinase” (Bioorg Med Chem Lett, 2002).

Chains of the proteins cited; added tags and fusions are not shown. Residues count along the entry.
UniProt P00742, 41-179 limits assumed: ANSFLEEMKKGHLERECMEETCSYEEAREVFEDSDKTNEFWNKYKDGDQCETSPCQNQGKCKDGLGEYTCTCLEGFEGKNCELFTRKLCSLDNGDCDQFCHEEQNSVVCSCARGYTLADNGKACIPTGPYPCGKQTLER
UniProt P00742, 235-488 limits assumed: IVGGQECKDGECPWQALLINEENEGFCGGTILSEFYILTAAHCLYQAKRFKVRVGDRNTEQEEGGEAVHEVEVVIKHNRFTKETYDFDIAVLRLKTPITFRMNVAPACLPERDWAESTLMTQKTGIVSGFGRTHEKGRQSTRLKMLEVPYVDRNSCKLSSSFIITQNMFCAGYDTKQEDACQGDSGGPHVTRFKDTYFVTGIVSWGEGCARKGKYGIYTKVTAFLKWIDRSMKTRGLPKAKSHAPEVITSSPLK

Target: Coagulation factor X (Homo sapiens, UniProt P00742)
Assay: In vitro inhibition of Coagulation factor Xa.

CC(C)COC(=O)OC[C@@H](NS(=O)(=O)Cc1ccccc1)C(=O)NCC(=O)NCc1ccc(C(=N)N)cc1
Ki: 0.5 µM
